Sequences of proteins named here, by UniProt entry; tags and fusion partners are left off.
UniProt P50052, whole entry: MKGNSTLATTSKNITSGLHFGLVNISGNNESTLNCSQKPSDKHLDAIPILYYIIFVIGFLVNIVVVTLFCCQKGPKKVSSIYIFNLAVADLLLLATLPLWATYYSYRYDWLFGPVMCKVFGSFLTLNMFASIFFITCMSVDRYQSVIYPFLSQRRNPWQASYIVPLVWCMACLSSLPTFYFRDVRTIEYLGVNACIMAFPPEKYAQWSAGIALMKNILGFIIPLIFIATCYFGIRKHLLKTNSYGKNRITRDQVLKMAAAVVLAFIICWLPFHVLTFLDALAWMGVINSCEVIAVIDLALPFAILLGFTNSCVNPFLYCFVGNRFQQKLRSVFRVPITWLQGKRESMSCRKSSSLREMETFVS

In US9624243B2, “Heterocyclic compounds and methods of their use” (Novartis AG, priority 2012, dated 2017):

Molecular target: AT2 receptor (Homo sapiens (Human), UniProt P50052)
Experiment: AT2 Receptor Binding
Conditions: HEK293 AT2 receptor transient cell membranes, [125I]-CGP42112A

Structure (SMILES): O=C(O)[C@@H]1C[C@H](N2CCC[C@@H](Cc3ccccc3)C2)CN1C(=O)C(c1ccccc1)c1ccccc1
- IC50: 63.2 nM

Structure (SMILES): O=C(O)[C@@H]1C[C@H](N2CCC[C@H](Cc3ccccc3)C2)CN1C(=O)C(c1ccccc1)c1ccccc1
- IC50: 50.3 nM
